We go through 22 compounds from PubChem BioAssay AID652054 (National Center for Advancing Translational Sciences (NCATS), 2013).

The chains behind the UniProt entries cited, without tags or fusion partners.
UniProt P35462, whole entry: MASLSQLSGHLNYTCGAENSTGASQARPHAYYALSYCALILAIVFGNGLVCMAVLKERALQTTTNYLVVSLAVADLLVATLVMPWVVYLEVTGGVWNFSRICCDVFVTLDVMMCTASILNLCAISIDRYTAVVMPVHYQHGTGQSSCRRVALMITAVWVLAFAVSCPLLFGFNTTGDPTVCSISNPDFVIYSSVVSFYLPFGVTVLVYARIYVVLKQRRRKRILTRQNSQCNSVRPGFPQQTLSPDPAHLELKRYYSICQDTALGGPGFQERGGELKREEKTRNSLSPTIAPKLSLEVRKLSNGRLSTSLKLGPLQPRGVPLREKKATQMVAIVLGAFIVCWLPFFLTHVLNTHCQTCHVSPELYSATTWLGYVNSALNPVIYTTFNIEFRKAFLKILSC

The entries are a selection whose mix differs from that of the whole data set. Some results for these compounds are left out of this collection, so the calls shown say nothing about other tests. Records with an inconclusive call do not appear. Active and inactive are the calls of the source. Rule as the data show it: active = max response below about -50%; inconclusive = no clear call, values can overlap the other calls; inactive = above that.
% is scaled to controls: 0 for no effect and ±100 for the full control effect.

This experiment addresses D(3) dopamine receptor (Homo sapiens) (UniProt P35462). The experiment can be described thus: qHTS of D3 Dopamine Receptor Antagonist: qHTS. As to conditions: D3R cells, DiscoveRx beta-arrestin luminescence, antagonist mode; stronger effect = lower value. From the text: D3 DARs represent a very important target for the treatment of several neuropsychiatric disorders. Indeed, one of the most promising therapeutic applications for the D3 DAR is in the area of addiction and related disorders. […] These findings have been observed with a number of addictive substances including cocaine, amphetamine, nicotine, and alcohol. […] Antagonism of the D3 DAR may also be therapeutic in the treatment of schizophrenia or psychosis. […] Since the D3 DAR is expressed in areas of the CNS associated with the control of mood and emotion, it has been hypothesized that selective antagonism of the D3 DAR may be effective in treating psychosis without inducing the motor side effects typically seen with D2 DAR antagonists.
This part of the project aims to discover novel antagonist.
NIH Chemical Genomics Center [NCGC]
NIH Molecular Libraries Probe Centers Network [MLPCN]
Assay Submitter (PI): David Sibley, NINDS
Freshly passaged cells are plated in 1536 well white, solid bottom plates at a density of 1500 cells/well in 3microl of complete media. After an overnight incubation at 37 degrees C in 5% CO2, cells are loaded with 23nl of test compound from the compound library (as well as dopamine controls) using a 1536 pintool and incubated at 37 degrees C for 90 minutes. Two microliters of DiscoveRx reagent is then added to all cells, and they are incubated for an additional 30 - 60 minutes at room temperature. Following incubation, luminescence is measured on a ViewLux CCD-based luminometer reader using a 20 sec exposure time.
A general note: In qHTS, concentration-response curves come from the screen itself.
`COc1cccc(C(=O)NCC2(N3CCCCC3)CCCCC2)c1`: the max response, negative = inhibition was inactive: -10%.

Turning to `COc1cc(C(=O)NCC2(N(C)C)CCCCC2)c([N+](=O)[O-])cc1OC`, the max response, negative = inhibition is inactive: -4.38%. `COc1ccc(Br)c(C(=O)NCC2(N3CCCCC3)CCCCC2)c1`: the max response, negative = inhibition was inactive: -18.2%. As for `CC(C)Oc1ccc(C(=O)NCC2(N(C)C)CCCCC2)cc1`, the max response, negative = inhibition is inactive: 1.62%.

Consider `O=C(OCCN1CCCC1)C(O)(c1ccccc1)c1ccccc1`, for which the max response, negative = inhibition was inactive: -0.25%. Then `CN(C)c1cccc(C(=O)NCC2(N(C)C)CCCCC2)c1`, with inactive: -9.84%; and `O=C(OC1CN2CCC1CC2)C(CO)(c1ccccc1)c1ccccc1` (configuration not stated), with inactive: -18.4%. Then `CCN(CC)CC(C)C(C)OC(=O)C(O)(c1ccccc1)c1ccccc1` (configuration not stated), with inactive: -12.3%; and `COc1cc(SC)ccc1C(=O)NCC1(N(C)C)CCCCC1`, with inactive: -12.1%; and `CC(C)N1C(=O)CC2(CCN(CCOC(=O)C(O)(c3ccccc3)c3ccccc3)CC2)C1=O`, with inactive: -9.82%. Then `Cc1ccc(C(=O)NCC2(N3CCCCC3)CCCCC2)cc1`, with inactive: -15.1%. With `O=C(NCC1(N2CCCCC2)CCCCC1)c1cc([N+](=O)[O-])ccc1Cl`, the max response, negative = inhibition was inactive: 1.23%. Then `CN1[C@@H]2CC[C@H]1CC(OC(=O)C(O)(c1ccccc1)c1ccccc1)C2` (some centres not stated), with inactive: -21.4%; and `C=CCN1CCN(CCOC(=O)C(O)(c2ccccc2)c2ccccc2)CC1`, with inactive: -6.47%; and `O=C(NCC1(N2CCCCC2)CCCCC1)c1cc(F)c(F)cc1Cl`, with inactive: 5.4%. Then `COc1ccc(C(=O)NCC2(N(C)C)CCCCC2)cc1`, with inactive: 20.5%; and `Cc1cc(C(=O)NCC2(N3CCCCC3)CCCCC2)ccc1[N+](=O)[O-]`, with inactive: 1.59%. Then `CCN1CCCC(OC(=O)C2(O)c3ccccc3C=Cc3ccccc32)C1` (configuration not stated), with inactive: -9.72%; and `O=C(NCC1(N2CCCCC2)CCCCC1)c1cccc(Br)c1`, with inactive: -13.5%. With `Cc1ccccc1C(=O)NCC1(N2CCCCC2)CCCCC1`, the max response, negative = inhibition is inactive: 7.51%. Then `CN(C)C1CCCC1OC(=O)C(O)(c1ccccc1)c1ccccc1` (configuration not stated), with inactive: 9.24%. Turning to `CN(C)c1ccc(C(=O)NCC2(N(C)C)CCCCC2)cc1`, the max response, negative = inhibition was inactive: 0.921%.
